## Antibody variant affinities, Ab-91 heavy chain, assay 2

Source: Engelhart et al. 2022 (doi:10.1038/s41597-022-01779-4), MIT Lincoln Laboratory and A-Alpha Bio; data file from the FLAb repository.

Target peptide (SARS-CoV-2 spike, HR2 region): PDVDLGDISGINAS

The variants keep the light chain, the linker and the frameworks of Ab-91 (scFv order VL, a (GGGGS)3 linker, VH).
VL: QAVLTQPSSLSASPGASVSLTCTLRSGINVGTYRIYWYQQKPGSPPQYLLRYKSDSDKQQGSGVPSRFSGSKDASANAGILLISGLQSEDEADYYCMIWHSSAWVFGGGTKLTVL
VH: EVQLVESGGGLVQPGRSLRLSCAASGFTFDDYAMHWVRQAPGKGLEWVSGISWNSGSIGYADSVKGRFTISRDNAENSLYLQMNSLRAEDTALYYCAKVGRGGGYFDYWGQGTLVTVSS

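The starting antibody came from a phage panning campaign against this peptide. AAYL51 was designed without a model: most single CDR substitutions and a random sample of double and triple ones. AlphaSeq pools MATa yeast showing the antibodies with MATalpha yeast showing the peptide. Pairs that bind mate more often; barcode pairs of the diploids are counted by sequencing. Scores were corrected for input abundance and mapped to Kd with protein pairs of known affinity run in the same pool. Mating was done three times.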

The parent's heavy chain CDRs are GFTFDDYAMH, GISWNSGSIGYADSVK, VGRGGGYFDY; each variant's own CDRs replace them letter for letter. Numbers give log10(Kd / nM), so 0 is 1 nM and 3 is 1 µM. Smaller is tighter. The mean shown is taken over the replicates in which the pair was detected. "n.d." means that the variant was in the library but no mating with the target was seen in that replicate; the authors take this as a sign of poor binding, and no number exists. In this assay the parent's reference entry averaged 1.86; its copy inside this library read 0.88. Background: pairings of library AAYL51 with three empty control strains gave a value in 21% of cases (median 4.54, 5th percentile 3.26). Values in that range, when seen in few replicates, are hard to tell from nonspecific mating. For each scFv, signals with the empty controls are counted beside the result, with their mean in brackets.

CDR-H1 | CDR-H2 | CDR-H3 | log10 Kd (nM) by replicate | mean log10 Kd (nM) | control signals
GFTFDDYAMH | GISWNSGSIGYAFSVK | VKRGGGYFNY | 2.69 / 2.85 / n.d. | 2.77 | 0 of 9
GFTQDDYAMR | GIQWNSGSIGYADSVK | VGRGGGYFDY | 4.79 / n.d. / 5.70 | 5.25 | 4 of 9 (4.46)
GFTFDDYDMH | GMSWNSGSIGYADSVK | VGRGGGYFDY | 4.77 / n.d. / n.d. | 4.77 | 1 of 9 (4.54)
GFTFDVYAMH | GISWNSGSIGYVDSVK | VGRGGGYFDV | 4.13 / n.d. / 4.43 | 4.28 | 7 of 9 (4.28)
GFTFDDYAMH | GISWNSFSIGYKDSVK | PGRGGGYFDY | 4.66 / 6.26 / 5.42 | 5.45 | 5 of 9 (5.39)
GPTFDDYAMH | GISWNSGSIGYADSVK | VQRGGGYFDY | n.d. / 4.49 / n.d. | 4.49 | 0 of 9
GFTFDDYMMH | GISWNSGSIGYADSIK | VGHGGGYFDY | n.d. / n.d. / n.d. | n.d. | 1 of 9 (4.36)
GFWFDDYAMH | GISWNSGSIGYADSVK | VGRYGGEFDY | 3.05 / 3.67 / n.d. | 3.36 | 4 of 9 (4.39)
EFRFDDYAMH | GISWNSGSIGYADSVK | VGRGGGWFDY | n.d. / n.d. / n.d. | n.d. | 3 of 9 (4.54)
GFTFDDYAMH | GISWNSGSIGYAQSVK | HGRGGGYFDC | n.d. / n.d. / n.d. | n.d. | 1 of 9 (2.96)
GFTFDDYAMH | GIGWPSGSIGYADSVK | VGRGGGYFCY | n.d. / n.d. / n.d. | n.d. | 0 of 9
GFTFDDYAMH | GISVNSGSIGYADSVK | VYRGGGYFDY | 3.07 / 2.44 / 2.65 | 2.72 | 0 of 9
GFTFDDTAMH | GIYWLSGSIGYADSVK | VGRGGGYFDY | n.d. / n.d. / n.d. | n.d. | 0 of 9
GFTFDDYAMH | LISWNSGSIGYADSVK | VGRGGGVFDS | n.d. / n.d. / n.d. | n.d. | 0 of 9
WFTFDDYAMH | PISWNSGSIGYADSVK | VGRGGGYSDY | n.d. / 4.30 / n.d. | 4.30 | 0 of 9
GFTFDDYAMH | GIEWNYGSTGYADSVK | VGRGGGYFDY | 3.96 / n.d. / n.d. | 3.96 | 4 of 9 (4.83)
GFTEDDYAMH | GISWNSGSAGYADSVK | VQRGGGYFDY | n.d. / n.d. / n.d. | n.d. | 0 of 9
GFTFDDYATH | GISWNVGSIGYADSVP | VGRGGGYFDY | 5.23 / n.d. / n.d. | 5.23 | 3 of 9 (4.37)
GFTFDDSAMH | GISWNSGSAGYADSVK | VGRGGGYCDY | 4.68 / n.d. / 4.56 | 4.62 | 3 of 9 (4.17)
GFTFDDRAMH | GISWNSGSIGFADSVK | VGRGGGYFDS | n.d. / n.d. / n.d. | n.d. | 1 of 9 (4.01)
AFTFDDYAMH | GISWNSGSIGIADSVK | VGRGAGYFDY | 5.75 / n.d. / 5.16 | 5.45 | 4 of 9 (4.88)
GFTFIDYAMH | GISWNMGSIGYPDSVK | VGRGGGYFDY | 4.23 / 4.71 / n.d. | 4.47 | 2 of 9 (4.85)
GFTYDDYAMH | AISWNSGSFGYADSVK | VGRGGGYFDY | n.d. / n.d. / n.d. | n.d. | 0 of 9
GFTFDDYAMH | GISWNSGSIGYADFWK | VSRGGGYFDY | 4.41 / n.d. / n.d. | 4.41 | 3 of 9 (4.07)
GFTFDDYAMH | GSSWNSGSPGYADSVK | VLRGGGYFDY | 5.97 / 5.69 / 4.88 | 5.51 | 5 of 9 (4.40)
GFWDDDYAMH | GISWNSGSIGYADSVK | VGRGGGKFDY | n.d. / n.d. / n.d. | n.d. | 1 of 9 (2.67)
GFTFDDFAMH | GISSNSGSIGYADSVK | VGRGGGTFDY | n.d. / n.d. / n.d. | n.d. | 1 of 9 (5.00)
GFTFDDRAMH | GISWNSGSIGYAKSVK | VGRYGGYFDY | n.d. / n.d. / n.d. | n.d. | 0 of 9
GFNFDDYAMH | GDSWNSGSIGYADSVK | VGRGGGYFDG | n.d. / n.d. / n.d. | n.d. | 0 of 9
GFTFDDCMMH | GISWNSGSIGYADSVK | VGRGGGVFDY | 5.05 / n.d. / 4.52 | 4.78 | 5 of 9 (5.14)
GFTFDDYAMD | GIMWNSGSIGYADSVK | VGRGGGHFDY | n.d. / n.d. / n.d. | n.d. | 0 of 9
PFIFDDYAMH | GISWNSGSIGYADSVK | VGRGGGYFCY | n.d. / 5.22 / 5.16 | 5.19 | 3 of 9 (4.51)
GFTFDDYAMH | GIKWNSGSIGYADSVK | VGRGGGKFDY | n.d. / n.d. / n.d. | n.d. | 1 of 9 (2.91)
GFTFDPYAMH | GISWNSGSIGYADSHK | VGRGGGYPDY | n.d. / n.d. / n.d. | n.d. | 1 of 9 (3.66)
GFTFDDYAMH | GISWNVGSIGYADSVK | VGRGGTYQDY | n.d. / n.d. / n.d. | n.d. | 0 of 9
GFTFDDYAQH | GISWNSGSIGYADSVK | VLRGGGKFDY | 5.31 / n.d. / n.d. | 5.31 | 3 of 9 (4.86)
GFTFADYAMH | GWSWNSGSIGYAISVK | VGRGGGYFDY | n.d. / n.d. / n.d. | n.d. | 2 of 9 (4.20)
GFTFDDGAMH | GISWNRGSIGYADSVK | VMRGGGYFDY | n.d. / 5.63 / n.d. | 5.63 | 1 of 9 (3.92)
GFTFDDYAVH | GISWNSGSIGYADSVK | VGRDGHYFDY | n.d. / n.d. / 5.07 | 5.07 | 3 of 9 (4.95)
GFGFDDYRMH | GISWNSGSIGYADSVK | VGRIGGYFDY | n.d. / n.d. / n.d. | n.d. | 1 of 9 (3.07)
GFTFDDYAMH | GISWNSGVIEYADSVK | VGRGGGYFSY | 5.26 / 5.19 / 5.14 | 5.19 | 8 of 9 (5.37)

Excerpt, the first 6 entries:

CDR-H1,CDR-H2,CDR-H3,log10 Kd (nM) by replicate,mean log10 Kd (nM),control signals
GFTFDDYAMH,GISWNSGSIGYAFSVK,VKRGGGYFNY,2.69 / 2.85 / n.d.,2.77,0 of 9
GFTQDDYAMR,GIQWNSGSIGYADSVK,VGRGGGYFDY,4.79 / n.d. / 5.70,5.25,4 of 9 (4.46)
GFTFDDYDMH,GMSWNSGSIGYADSVK,VGRGGGYFDY,4.77 / n.d. / n.d.,4.77,1 of 9 (4.54)
GFTFDVYAMH,GISWNSGSIGYVDSVK,VGRGGGYFDV,4.13 / n.d. / 4.43,4.28,7 of 9 (4.28)
GFTFDDYAMH,GISWNSFSIGYKDSVK,PGRGGGYFDY,4.66 / 6.26 / 5.42,5.45,5 of 9 (5.39)
GPTFDDYAMH,GISWNSGSIGYADSVK,VQRGGGYFDY,n.d. / 4.49 / n.d.,4.49,0 of 9